Measurements reported in PubChem BioAssay AID771 (SRMLSC, 2007).
The list shows a part of the results, in another mix than the full data. Activity calls are given as the source filed them.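 How the source made its calls: active means growth inhibition above 90%, meaning viable cell count by imaging cut by more than 90% versus vehicle controls; inactive means growth inhibition below 90%.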

Experiment: HT29 colon tumor cell growth inhibition, primary screen, imaging, high content imaging, 48 h, CellTiter-Glo (AID 771)
Conditions: HCS imaging cell count, at 10 µM, active compounds read high

Row | SMILES | growth inhibition
1 | Cc1cccc(OCC(=O)OC2CN3CCC2CC3)c1 (configuration not stated) | inactive: 38.1%
2 | Cc1ccc(OCC(=O)OC2CN3CCC2CC3)cc1 (configuration not stated) | inactive: -63.7%
